“Also recorded” adds a separate entry of the source.
Test system: dopaminergic SN neurons
Experiment: Stereological TH+ SN cell counts in inducible astrocytic MAO-B transgenic mice
Conditions: dox-induced transgenic mice; co-treatment i.p. 10-30 mg/kg/day for two weeks; FIG. 3A

For `C#CCN(C)[C@H](C)Cc1ccccc1` [deprenyl], the “dopaminergic SN cell loss” value was “prevented; also recorded: attenuated”.
